Test results: US20170224654A1, “PHARMACEUTICAL COMPOSITIONS AND METHODS FOR COUNTERING CHEMOTHERAPY INDUCED CARDIOTOXICITY” (Stem Cell Theranostics, Inc., priority 2016, published 2017)

System: Human iPSC-derived cardiomyocytes
Experiment: DOX-induced DNA double strand break (γH2AX immunostaining)
Type: cell-based

Question: `C[C@@H](CN1CC(=O)NC(=O)C1)N1CC(=O)NC(=O)C1` [dexrazoxane] was tested. Which “protection against DOX-induced DNA double strand break (γH2AX-positive cells)” value did it give?
Answer: little or no protection
